Key:
HEK-hNET = experiment: Toxicity toward HEK cells stably transfected with Norepinephrine Transporter; type: cell-based, human; details: selectivity HEK-EV vs HEK-hNET
Description: The term “resistance factor” is a measure of selectivity conferred upon the platinum-based compound by the inclusion of ligands that promote recognition by NET.
(§1) After overnight incubation, the platinum compound with or without an OCT inhibitor (disopyramide) was then be added to the culture medium to various concentrations. After exposure to the drug for 7 hours, the drug-containing medium was replaced with fresh, drug-free medium and the incubation was continued for 72 hours.

[1] = tested on: HCT116 colon cancer cell line; experiment: Cytotoxicity in colon cancer cell line HCT116 with and without cimetidine; type: cell-based; details: ratio of IC50 in presence and absence of cimetidine
Description: (§2) Platinum uptake and platinum-DNA adduct formation was then measured in these transfected cell lines. In some cases, chemical inhibitors of OCT1 were used. In general, we used disopyramide (150 μM). […] In some cases, cimetidine (3 mM) was used as a general OCT inhibitor. Cytotoxicity of some of the leads was determined in colon cancer cell lines. Described below in some detail are the methods for these studies.
(§3) HEK293 cell lines, stably expressing hOCT1, hOCT2 and hOCT3. The following colon cancer cell lines were also used: HCT116, RKO, DLD, HT29 and SW620 purchased from American Type Tissue Culture collection.
as §1

[2] = tested on: RKO colon cancer cell line; experiment: Cytotoxicity in colon cancer cell line RKO with and without cimetidine; type: cell-based; details: RK0; ratio of IC50 in presence and absence of cimetidine
Description: as §2, §3, §1

[3] = tested on: DLD colon cancer cell line; experiment: Cytotoxicity in colon cancer cell line DLD with and without cimetidine; type: cell-based; details: ratio of IC50 in presence and absence of cimetidine
Description: as §2, §3, §1

[4] = tested on: HT29 colon cancer cell line; experiment: Cytotoxicity in colon cancer cell line HT29 with and without cimetidine; type: cell-based; details: ratio of IC50 in presence and absence of cimetidine
Description: as §2, §3, §1

[5] = tested on: SW620 colon cancer cell line; experiment: Cytotoxicity in colon cancer cell line SW620 with and without cimetidine; type: cell-based; details: ratio of IC50 in presence and absence of cimetidine
Description: as §2, §3, §1

What does the source list for `O=C1[O][Pt]2([NH][C@@H]3CCCC[C@H]3[NH]2)[O]C1=O` [Oxaliplatin, reference compound]?
Resistance Factor (HEK-hNET): 1.7; Resistance Factor [1]: 10.8; Resistance Factor [2]: 14.3; Resistance Factor [3]: 7.02; Resistance Factor [4]: 4.63; Resistance Factor [5]: 5.71

— patent publication US9217007B2, “Platinum anticancer agents” (priority 2011, dated 2015)
